Protein sequences, listed by entry. Tags and fused reporters are not part of them.
UniProt Q99720, whole entry: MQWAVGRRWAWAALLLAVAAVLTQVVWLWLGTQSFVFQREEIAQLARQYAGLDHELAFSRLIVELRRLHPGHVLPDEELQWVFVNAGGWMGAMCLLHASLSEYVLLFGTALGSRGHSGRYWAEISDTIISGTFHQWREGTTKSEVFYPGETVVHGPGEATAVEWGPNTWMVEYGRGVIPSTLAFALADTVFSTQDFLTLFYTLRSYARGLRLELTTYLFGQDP

In patent US10301318B2, “Neuroactive compounds and methods of using the same” (THE GENERAL HOSPITAL CORPORATION, priority 2014, dated 2019):

Legend:
sigma-1 = sigma-1 (Homo sapiens, UniProt Q99720); test: in vitro radioligand competition binding, sigma-1; parameters: species or system mammalian; conditions: for Ki: read-out: Ki for sigma-1, six best Ki values of 1170 binding assays
Protocol: (§1) FIG. 6. Target profiling. (a) Heat map depiction of in vitro mammalian target binding assay results across 45 candidate targets. Small molecules were computationally clustered by target profile similarity (vertical brackets) and targets were clustered by chemical binding profiles (horizontal brackets). […] (b) In vitro mammalian target binding receptor competition assays using cloned sigma-1 or -2, as indicated. Radioligand binding was measured after co-incubation with an unlabeled competitor, either haloperidol (positive control, black) or finazine (red). (c) Correlation plots of compound potency in the zebrafish strobe assay versus in vitro potency in simga-1 or -2 binding assays, as indicated. Each point represents a different compound in the finazine class.
(§2) To begin to determine the mechanism(s) of action of the newly discovered small molecules we screened them against a panel of 45 candidate neuronal targets in vitro (FIG. 6a). In each case we tested their ability to disrupt the interaction between a candidate neuronal protein and a known high-affinity radiolabeled ligand.

sigma-2 = test: in vitro radioligand competition binding, sigma-2; parameters: species or system mammalian; conditions: similar to haloperidol
Protocol: as §1, §2

mice [1] = test: contextual fear conditioning test; conditions: 24 h after footshocks; vehicle about 60%
Protocol: FIG. 7. Finazine has neuroactive effects in a mouse freezing assay. Contextual Fear Conditioning Test using male C57BL/6J mice treated with 10% DMSO vehicle or finazine, as indicated. Locomotion was measured during the exposure to the conditioned context 24 h post shock treatment. Data were analyzed by one-way analysis of variance (ANOVA) and the Fisher's PLSD post hoc test. (*p=0.0328).
To determine whether or not compounds discovered in the zebrafish assay retain activity in mammals, we turned to a well-established assay of behavioral freezing in mice, contextual fear conditioning. […] Mice were treated with either 10% DMSO vehicle or finazine (compound (1)), and evaluated for their freezing response to the conditioning chamber twenty-four hours after receiving a series of mild (0.5 mA) footshocks. […]
Male C57BL/6J mice (9-10 weeks at testing) were obtained from Jackson Laboratories (Bar Harbor, Me.). […] Locomotor activity was measured in Plexiglas square chambers (27.3×27.3×20.3 cm; Med Associates Inc., St Albans, Vt.) surrounded by infrared photobeam sources and detectors. […] Mice were injected with 10% DMSO vehicle or finazine (6.25, 12.5, or 25 mg/kg in 10% DMSO) and locomotor activity was monitored for 30 m (baseline total distance). Mice were then administered saline vehicle or PCP (5 mg/kg) and activity was measured for an additional 60 m. […]

mice [2] = test: psychostimulant (PCP)-induced locomotor assay; conditions: for baseline locomotor activity: IP, before PCP
Source text: To determine if finazine (compound (1)) has antipsychotic-like activity, we tested this compound in a psychostimulant-induced schizophrenia model. In humans, acute administration of psychostimulants such as phencyclidine (PCP), a NMDA receptor antagonist, induces psychosis-like symptoms in common with schizophrenia [Jentsch, J. D. & Roth, R. H. The Neuropsychopharmacology of Phencyclidine: From NMDA Receptor Hypofunction to the Dopamine Hypothesis of Schizophrenia. Neuropsychopharmacology 20, 201-225 (1999)]. In mice, PCP induces a hyperlocomotion phenotype that can be reversed by haloperidol and other typical and atypical antipsychotic drugs [Gleason, S. D. & Shannon, H. E. Blockade of phencyclidine-induced hyperlocomotion by olanzapine, clozapine and serotonin receptor subtype selective antagonists in mice. Psychopharmacology (Berl.) 129, 79-84 (1997); Freed, W. J., Bing, L. A. & Wyatt, R. J. Effects of neuroleptics on phencyclidine (PCP)-induced locomotor stimulation in mice. Neuropharmacology 23, 175-181 (1984)]. To determine if finazine might have antipsychotic-like activity in mammals we injected three groups of mice each with graded doses (25, 12.5 and 6.25 mg/kg). […]
Male C57BL/6J mice (9-10 weeks at testing) were obtained from Jackson Laboratories (Bar Harbor, Me.). […] Locomotor activity was measured in Plexiglas square chambers (27.3×27.3×20.3 cm; Med Associates Inc., St Albans, Vt.) surrounded by infrared photobeam sources and detectors. […] Mice were injected with 10% DMSO vehicle or finazine (6.25, 12.5, or 25 mg/kg in 10% DMSO) and locomotor activity was monitored for 30 m (baseline total distance). Mice were then administered saline vehicle or PCP (5 mg/kg) and activity was measured for an additional 60 m. […] Locomotor activity was measured as total distance traveled (cm), assessed via infrared beam breaks. Locomotion prior to PCP administration (baseline, 0-30 m) and locomotion post PCP administration (PCP, 30-60 m) were analyzed by one-way analysis of variance (ANOVA) with finazine (0, 6.25, 12.5, 25) as the independent variable. […]

Cc1ccc(NC(=O)CCN2CCCCCC2)cc1C
Ki (sigma-1): 1.7 nM

Cc1cc(C)cc(NC(=O)CCN2CCCCCC2)c1
Ki (sigma-1): 1.4 nM

Cc1cccc(NC(=O)CCN2CCN(C/C=C/c3ccccc3)CC2)c1
Ki values for sigma-1 (in words) (sigma-1; similar to haloperidol): low nM
Ki values for sigma-2 (in words) (sigma-2): low nM
time immobile (freezing) in conditioned context (mice [1]): less than 40%
effect on PCP-induced hyperactivity (mice [2]; PCP 5 mg/kg 30 min after compound): reduced the psychostimulant effect of PCP
baseline locomotor activity (mice [2]; lowest dose 6.25 mg/kg): unaffected
baseline locomotor activity (mice [2]; two higher doses (25 and 12.5 mg/kg)): decrease in baseline locomotor activity

Cc1cc(NC(=O)CCN2CCCCC2)ccc1Br
Ki (sigma-1): 0.8 nM
